## AlphaSeq binding of Ab-91 heavy chain variants to a spike HR2 peptide

Target: peptide PDVDLGDISGINAS, taken from heptad repeat 2 (HR2) of SARS-CoV-2 spike.

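The starting antibody came from a phage panning campaign against this peptide. In library AAYL51, one, two or three CDR residues were substituted; doubles and triples were drawn at random. In AlphaSeq, yeast of one mating type display the scFv and yeast of the other type display the target. After mating in shaken culture at 30 °C for 16 h, diploids were selected and their barcode pairs sequenced. The ratio of observed to expected reads was calibrated, replicate by replicate, on BCL2-family standards whose Kd was known from biolayer interferometry. Mating was done three times.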

Parent scFv Ab-91: VL joined to VH by the linker GGGGSGGGGSGGGGS. Changes lie in the heavy chain CDRs alone.
VL: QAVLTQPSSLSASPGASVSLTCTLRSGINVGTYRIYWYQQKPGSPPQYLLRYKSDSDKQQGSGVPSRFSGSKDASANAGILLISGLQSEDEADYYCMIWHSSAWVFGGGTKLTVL
VH: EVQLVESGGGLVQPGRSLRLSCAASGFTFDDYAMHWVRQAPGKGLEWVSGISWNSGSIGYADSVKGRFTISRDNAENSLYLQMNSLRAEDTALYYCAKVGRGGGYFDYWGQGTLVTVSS

Substitutions are numbered in sequence along the VH above, starting at 1 (not Kabat).
This list gathers variants with a substitution at Y108 (VH, numbered from residue 1).
Each Kd is an estimate from the mating assay, the geometric mean of the replicates in which the pair was seen; lower is stronger.
Where no diploid with the target was found in any replicate, the entry reads "nd": below detection, most likely a poor binder, though not proof of it.

Variant T28D F106M Y108R showed 2.5 µM (3 of 3 replicates; controls 2 of 9). Variant V64Y F106A Y108I showed 1.2 µM (2 of 3 replicates; controls 0 of 9). With W53K F106R Y108F the result was nd (0 of 3 replicates; controls 0 of 9). With Y108D the result was nd (0 of 3 replicates; controls 1 of 9). For G50I Y108N, the assay gave 39 µM (2 of 3 replicates; controls 2 of 9). Variant F27Q S63M Y108Q showed 7.1 µM (3 of 3 replicates; controls 8 of 9). For Y60R Y108L, the assay gave 67 µM (3 of 3 replicates; controls 3 of 9).

With M34L Y108W the result was 110 nM (3 of 3 replicates; controls 3 of 9). With G56W R101C Y108N the result was 15 nM (3 of 3 replicates; controls 1 of 9). For D62W V64I Y108C, the assay gave nd (0 of 3 replicates; controls 0 of 9). With D62M Y105H Y108T the result was nd (0 of 3 replicates; controls 0 of 9). Variant T28L M34G Y108P showed nd (0 of 3 replicates; controls 0 of 9). With F29L Y108P the result was 26 µM (1 of 3 replicates; controls 5 of 9). With A33N G50S Y108D the result was nd (0 of 3 replicates; controls 1 of 9).

Variant H35Y G103A Y108W gave nd (0 of 3 replicates; controls 0 of 9). Variant D30P I51E Y108T gave nd (0 of 3 replicates; controls 2 of 9). With S55D R101P Y108T the result was 6.7 µM (3 of 3 replicates; controls 5 of 9). Variant F27I K65P Y108N showed 67 µM (2 of 3 replicates; controls 2 of 9). With N54P D107G Y108F the result was 1.2 µM (1 of 3 replicates; controls 0 of 9). For S52Q G100L Y108Q, the assay gave nd (0 of 3 replicates; controls 1 of 9). With G26V M34A Y108W the result was 360 µM (1 of 3 replicates; controls 4 of 9).

For Y32V R101L Y108C, the assay gave 1.2 µM (3 of 3 replicates; controls 2 of 9). Variant Y60N G100Q Y108P gave 350 µM (3 of 3 replicates; controls 6 of 9). With F29N I58K Y108D the result was 7.0 µM (1 of 3 replicates; controls 1 of 9). Variant Y32E G102I Y108D gave nd (0 of 3 replicates; controls 0 of 9). Variant F29Y D30Y Y108G showed nd (0 of 3 replicates; controls 1 of 9). With M34H V99M Y108H the result was 360 µM (1 of 3 replicates; controls 1 of 9). Variant N54H Y108I showed 64 nM (3 of 3 replicates; controls 0 of 9).

For T28M G56Y Y108T, the assay gave 230 nM (3 of 3 replicates; controls 3 of 9). Variant F29I M34Y Y108C gave 18 µM (1 of 3 replicates; controls 2 of 9). Variant G26R V64T Y108S gave 9.1 µM (2 of 3 replicates; controls 2 of 9). Variant G26N G100H Y108F showed nd (0 of 3 replicates; controls 0 of 9). Variant W53K N54E Y108C gave nd (0 of 3 replicates; controls 2 of 9). Variant T28I G50L Y108F showed nd (0 of 3 replicates; controls 1 of 9). Variant N54P V99L Y108S gave 330 µM (2 of 3 replicates; controls 6 of 9).

Variant V64M G104R Y108N gave 27 nM (3 of 3 replicates; controls 2 of 9). Variant Y108T showed 4.2 nM (3 of 3 replicates; controls 1 of 9). Variant V99C G102H Y108I gave 110 µM (3 of 3 replicates; controls 1 of 9). For G26Q S55G Y108H, the assay gave 1.1 µM (3 of 3 replicates; controls 6 of 9). Variant N54L A61C Y108E gave nd (0 of 3 replicates; controls 0 of 9). For F29L G100E Y108G, the assay gave 27 µM (1 of 3 replicates; controls 0 of 9). Variant M34Y V64E Y108H showed nd (0 of 3 replicates; controls 0 of 9).

With W53F Y105P Y108W the result was 21 nM (3 of 3 replicates; controls 0 of 9). Variant F29A Y108N gave 100 µM (2 of 3 replicates; controls 2 of 9).

Repeated from above, the 7 best binders with a signal in all replicates:

changes,Kd (apparent),seen in,control signals
Y108T,4.2 nM,3 of 3,1 of 9
G56W R101C Y108N,15 nM,3 of 3,1 of 9
W53F Y105P Y108W,21 nM,3 of 3,0 of 9
V64M G104R Y108N,27 nM,3 of 3,2 of 9
N54H Y108I,64 nM,3 of 3,0 of 9
M34L Y108W,110 nM,3 of 3,3 of 9
T28M G56Y Y108T,230 nM,3 of 3,3 of 9

Parent in this assay: reference entry 72 nM, copy in this library 7.5 nM.
Empty control strains, which show no peptide, gave a signal in 21% of pairings with library AAYL51; the median was 34 µM and 95% of these signals were weaker than 1.8 µM. No background was subtracted. Also given: how often the same scFv was detected with the empty control strains.

Values reported by Engelhart et al. 2022, doi:10.1038/s41597-022-01779-4 (FLAb copy).